Data published in ChEMBL document CHEMBL1154528, “Discovery of a novel series of quinoxalines as inhibitors of c-Met kinase” (Bioorg Med Chem Lett, 2009).

Protein sequences, listed by entry. Tags and fused reporters are not part of them. Lines headed by an entry give the natural chain unless they say otherwise; changes in a name come on top.
UniProt P08581: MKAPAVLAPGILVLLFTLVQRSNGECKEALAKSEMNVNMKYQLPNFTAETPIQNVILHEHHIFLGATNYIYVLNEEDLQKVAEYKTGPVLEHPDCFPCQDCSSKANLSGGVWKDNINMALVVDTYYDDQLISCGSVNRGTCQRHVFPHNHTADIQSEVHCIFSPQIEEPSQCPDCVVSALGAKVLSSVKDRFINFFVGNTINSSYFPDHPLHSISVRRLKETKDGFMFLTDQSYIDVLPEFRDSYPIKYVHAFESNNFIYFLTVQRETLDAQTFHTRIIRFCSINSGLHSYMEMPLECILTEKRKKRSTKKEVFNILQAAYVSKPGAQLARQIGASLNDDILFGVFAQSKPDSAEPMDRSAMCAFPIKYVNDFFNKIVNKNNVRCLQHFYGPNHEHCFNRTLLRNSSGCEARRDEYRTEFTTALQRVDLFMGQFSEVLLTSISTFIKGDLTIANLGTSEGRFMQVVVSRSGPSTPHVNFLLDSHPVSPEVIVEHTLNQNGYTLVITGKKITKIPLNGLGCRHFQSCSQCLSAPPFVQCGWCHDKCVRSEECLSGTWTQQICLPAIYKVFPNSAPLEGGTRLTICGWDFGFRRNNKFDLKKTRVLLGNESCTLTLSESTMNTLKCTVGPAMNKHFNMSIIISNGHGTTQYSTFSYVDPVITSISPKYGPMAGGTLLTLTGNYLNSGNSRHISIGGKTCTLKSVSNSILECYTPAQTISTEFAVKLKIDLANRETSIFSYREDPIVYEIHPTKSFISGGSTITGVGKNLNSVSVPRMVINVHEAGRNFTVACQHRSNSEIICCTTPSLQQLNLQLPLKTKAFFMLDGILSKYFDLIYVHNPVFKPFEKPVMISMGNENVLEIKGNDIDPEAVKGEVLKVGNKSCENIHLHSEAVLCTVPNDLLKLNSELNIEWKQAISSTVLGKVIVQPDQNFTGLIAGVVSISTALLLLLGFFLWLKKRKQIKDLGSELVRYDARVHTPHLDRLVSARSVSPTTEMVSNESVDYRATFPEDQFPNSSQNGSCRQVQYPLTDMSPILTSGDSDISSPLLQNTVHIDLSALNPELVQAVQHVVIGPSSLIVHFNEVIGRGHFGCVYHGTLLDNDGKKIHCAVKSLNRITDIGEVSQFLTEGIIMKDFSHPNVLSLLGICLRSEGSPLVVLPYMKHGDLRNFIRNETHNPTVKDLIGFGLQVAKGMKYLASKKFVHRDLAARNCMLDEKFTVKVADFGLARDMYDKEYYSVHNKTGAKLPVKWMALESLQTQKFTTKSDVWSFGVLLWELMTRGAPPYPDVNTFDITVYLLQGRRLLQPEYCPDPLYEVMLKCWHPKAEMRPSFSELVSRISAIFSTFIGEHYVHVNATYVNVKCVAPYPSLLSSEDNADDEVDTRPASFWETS

What follows are molecules tested against Hepatocyte growth factor receptor (Homo sapiens) (UniProt P08581) (assay: Inhibition of human recombinant his-tagged c-Met at 100 uM by TR-FRET assay).
Design: scale not given: the % may be the effect or the level left

Row | SMILES | Activity [%]
1 | CN1CCN(c2cnc3cc(C(F)(F)F)cc(-c4ccc(OCc5ccccc5)cc4)c3n2)CC1 | 0
2 | FC(F)(F)c1cc(-c2ccccc2)c2nccnc2c1 | 0
3 | CC(=O)Nc1cnc2cc(C(F)(F)F)cc(-c3ccccc3)c2n1 | 0
